Tests used:
[1] = pH-solubility of Dorzolamide with hyperbranched polymer and PEG (Experimental Example 1); type: physicochemical; conditions: phosphate buffer pH 7
Description: Similar suspensions were also prepared in aqueous solution containing different concentrations of different HP and PEG with a molecular weight of 8000. A combination of Polysorbate 80 and PEG 8000 was also attempted. The pH was measured accurately with micro-pH electrode (Thermo Scientific). The desired pH was adjusted using either 1 M NaOH or 1 M HCl. […] After allowing the suspensions to equilibrate at room temperature for an additional 30 minutes, the suspension solutions were then sonicated for 10 minutes and finally filtered through 0.45 μm syringe filters.

[2] = pH 7.4, 0.5% (w/v) Timolol, 5% (w/v) HP (Boltorn W3000)
intact rabbit corneas = conditions: male, New Zealand, 180 min, pH 7.4
[3] = Aqueous solubility of Dorzolamide in the presence of Timolol with HP, PEG, Polysorbate 80 (Experimental Example 3); type: physicochemical; conditions: pH 5.65, in the presence of Timolol, in all cases (control and additives)
Description: The final pH was adjusted to 5.65 with 1 M NaOH after addition of HP (sample 1). The combination of different molecular weight PEG and Polysorbate 80 at pH 5.65 as per Table 3 were also attempted. […] After allowing the suspensions to equilibrate at room temperature for an additional 30 minutes, the suspension solutions were then sonicated for 10 minutes and finally filtered through 0.45 μm syringe filters.

With `CCN[C@H]1C[C@H](C)S(=O)(=O)c2sc(S(N)(=O)=O)cc21` [Dorzolamide] the “solubility of Dorzolamide” value ([1]; 17% of PEG 8000 and 1% Lupasol PS) was 2 % (w/v), the “solubility of Dorzolamide” value ([1]; about 20% PEG 8000 and 0.5% of Lupasol PS) was 2 % (w/v) and the solubility [2] was “about 2 % (w/v)”. For the same compound, the “cumulative amount permeated relative to control formulation at similar pH with no additives” value (intact rabbit corneas) was roughly 2 times and the “solubility of Dorzolamide” value [3] was “above 2%”.

Reference: patent US20130053374A1, “OPHTHALMIC COMPOSITION” (priority 2010, published 2013)
